# Patent US4522803A (priority 1983, dated 1985)
# What was measured:
# B. canis [1] = assay type: cell-based; conditions: suspension culture
# B. canis [2] = test system: B. canis; set-up: species or system B. canis ATCC 23365; conditions: in vivo
smiles,measurement,setting,value
NC[C@H]1O[C@H](O[C@H]2[C@H](O)[C@@H](O[C@H]3O[C@H](CO)[C@@H](O)[C@H](N)[C@H]3O)[C@H](N)C[C@@H]2N)[C@H](O)[C@@H](O)[C@@H]1O [Kanamycin],Killing of B. canis in vitro,B. canis [1],kill B. canis in vitro
same,Colony-Forming Units B. Canis Per Spleen,B. canis [2],2.72 ± 0.91 × 10^5
